Laboratory results as given in PubChem BioAssay (NCATS).
Only a part is listed here, and it is no random draw. Inconclusive results are not listed. Calls of active or inactive are those of the source. Calls follow the shape of the dose curve; as a rule, active = well fitted curve in the direction sought with a large enough effect; inconclusive = small, poorly fitted or top-dose-only effect, or another doubt; inactive = no such curve, though single readings can be large; an effect the other way counts as inactive or inconclusive.

By UniProt entry, the sequences of proteins in these tests, tags left out. Where a name states a change or a piece, a line headed by the entry shows the natural chain unless it says otherwise.
UniProt P00883: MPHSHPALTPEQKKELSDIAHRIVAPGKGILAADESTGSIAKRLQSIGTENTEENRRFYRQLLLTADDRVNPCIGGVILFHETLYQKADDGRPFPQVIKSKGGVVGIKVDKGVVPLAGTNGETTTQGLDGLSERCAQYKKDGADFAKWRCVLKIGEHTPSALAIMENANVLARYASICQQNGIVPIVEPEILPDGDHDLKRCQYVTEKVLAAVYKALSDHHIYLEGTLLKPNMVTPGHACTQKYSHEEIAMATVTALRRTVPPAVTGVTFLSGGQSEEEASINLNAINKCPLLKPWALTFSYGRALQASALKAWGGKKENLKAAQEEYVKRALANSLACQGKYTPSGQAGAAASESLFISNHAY
UniProt O95398: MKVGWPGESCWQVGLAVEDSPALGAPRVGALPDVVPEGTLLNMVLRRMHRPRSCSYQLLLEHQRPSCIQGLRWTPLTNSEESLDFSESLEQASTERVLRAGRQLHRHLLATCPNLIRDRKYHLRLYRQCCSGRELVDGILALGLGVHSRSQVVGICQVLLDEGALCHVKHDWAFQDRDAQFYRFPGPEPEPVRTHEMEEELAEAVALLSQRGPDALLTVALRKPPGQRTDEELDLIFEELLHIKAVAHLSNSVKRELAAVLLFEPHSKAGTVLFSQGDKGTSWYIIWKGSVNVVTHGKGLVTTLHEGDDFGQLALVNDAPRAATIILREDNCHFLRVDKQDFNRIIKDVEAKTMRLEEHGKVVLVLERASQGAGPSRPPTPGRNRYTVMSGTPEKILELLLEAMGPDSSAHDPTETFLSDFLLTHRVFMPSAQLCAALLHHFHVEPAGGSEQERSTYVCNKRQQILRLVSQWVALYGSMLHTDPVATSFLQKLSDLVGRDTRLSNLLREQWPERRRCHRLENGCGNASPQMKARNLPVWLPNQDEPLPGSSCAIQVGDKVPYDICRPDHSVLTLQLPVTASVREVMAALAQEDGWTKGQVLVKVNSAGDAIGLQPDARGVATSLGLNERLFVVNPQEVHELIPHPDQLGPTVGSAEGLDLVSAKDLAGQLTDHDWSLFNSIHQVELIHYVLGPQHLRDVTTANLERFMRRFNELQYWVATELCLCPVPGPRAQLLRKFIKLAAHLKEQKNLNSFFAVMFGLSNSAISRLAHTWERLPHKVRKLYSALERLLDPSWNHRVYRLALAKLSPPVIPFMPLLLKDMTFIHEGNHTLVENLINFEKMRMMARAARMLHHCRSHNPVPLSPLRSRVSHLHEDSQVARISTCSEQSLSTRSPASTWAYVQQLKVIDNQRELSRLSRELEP
UniProt Q8WZA2: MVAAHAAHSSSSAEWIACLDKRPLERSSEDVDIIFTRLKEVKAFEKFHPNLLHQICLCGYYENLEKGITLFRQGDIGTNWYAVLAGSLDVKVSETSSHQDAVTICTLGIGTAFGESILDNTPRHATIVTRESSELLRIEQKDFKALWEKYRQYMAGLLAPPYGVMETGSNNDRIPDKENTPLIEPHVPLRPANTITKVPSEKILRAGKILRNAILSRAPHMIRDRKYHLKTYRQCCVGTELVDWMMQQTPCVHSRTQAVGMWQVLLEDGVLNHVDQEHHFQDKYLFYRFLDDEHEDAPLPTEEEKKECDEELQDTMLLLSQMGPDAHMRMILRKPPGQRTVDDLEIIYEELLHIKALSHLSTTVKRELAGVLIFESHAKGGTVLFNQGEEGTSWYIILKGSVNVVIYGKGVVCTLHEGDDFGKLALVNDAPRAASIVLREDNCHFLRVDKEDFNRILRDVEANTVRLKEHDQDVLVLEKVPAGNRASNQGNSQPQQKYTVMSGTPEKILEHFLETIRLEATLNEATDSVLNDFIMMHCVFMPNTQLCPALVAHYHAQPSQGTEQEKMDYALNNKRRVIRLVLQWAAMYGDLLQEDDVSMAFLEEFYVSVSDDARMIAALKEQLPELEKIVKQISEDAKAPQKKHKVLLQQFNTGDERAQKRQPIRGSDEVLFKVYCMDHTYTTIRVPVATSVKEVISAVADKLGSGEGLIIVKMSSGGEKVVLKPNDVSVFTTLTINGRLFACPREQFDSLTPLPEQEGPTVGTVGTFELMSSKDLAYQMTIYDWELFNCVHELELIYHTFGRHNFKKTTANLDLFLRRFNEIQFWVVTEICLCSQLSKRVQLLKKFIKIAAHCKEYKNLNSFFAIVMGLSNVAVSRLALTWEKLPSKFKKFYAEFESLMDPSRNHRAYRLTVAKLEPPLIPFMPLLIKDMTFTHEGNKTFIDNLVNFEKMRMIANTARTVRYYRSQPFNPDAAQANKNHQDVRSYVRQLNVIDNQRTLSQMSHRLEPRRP

Assays:
[1] = biological target: Fructose-bisphosphate aldolase A (Oryctolagus cuniculus) (UniProt P00883); test: qHTS Assay for Inhibitors of Fructose-1,6-bisphosphate Aldolase from Giardia Lamblia: Rabbit FBPA Selectivity (AID 2794); conditions: Rabbit muscle FBPA enzyme inhibition, selectivity counter-screen; at 57.5 µM (top of the series); also: % is scaled to controls: 0 for no effect and ±100 for the full control effect; nearly all actives have a fitted effect of over 60% in size
Procedure, shortened: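 Room-temperature coupled fluorescence assay using rabbit aldolase. Steps: coupling enzymes, compound (up to 57.5 uM final), 10 min; substrate plus detection reagent, 20 min; read 525/598 nm.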

[2] = qHTS Assay for Inhibitors of Fructose-1,6-bisphosphate Aldolase from Giardia Lamblia: Coupling assay counterscreen confirmation (AID 2795); conditions: GAPDH coupling enzyme counterscreen, biochemical; at 57.5 µM (top of the series); also: % is scaled to controls: 0 for no effect and ±100 for the full control effect; nearly all actives have a fitted effect of over 55% in size
Procedure, shortened: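 Primary-screen hits were tested against the coupling system alone (GAPDH-based, glyceraldehyde-3-phosphate), without aldolase. Compounds at up to 57.5 uM final were preincubated 10 min at RT with coupling enzymes, then substrate/detection mix (AmpLite Red) was added for 20 min at RT; fluorescence read at 525/598 nm.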

[3] = biological target: Rap guanine nucleotide exchange factor 3 (Homo sapiens) (UniProt O95398); test: Confirmatory qHTS for agonist of cAMP-regulated guanine nucleotide exchange factor 3 (EPAC1) (AID 1645881); conditions: EPAC1 Rap1B BODIPY-GDP exchange fluorescence, 100% = cAMP control response; at 154 µM (top of the series);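 also: EPAC1 catalysed release of BODIPY-GDP from Rap1B seen as fluorescence loss; nearly all actives have a fitted effect of over 75% in size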
[4] = biological target: Rap guanine nucleotide exchange factor 4 (Homo sapiens) (UniProt Q8WZA2); test: Confirmatory qHTS for agonist of cAMP-regulated guanine nucleotide exchange factor 4 (EPAC2) (AID 1645884); conditions: EPAC2 GEF activity, Rap1B-BODIPY-GDP fluorescence, percent relative to cAMP agonist control; at 17.1 µM (top of the series) unless noted;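 also: nucleotide exchange releases bodipy-GDP from Rap1 and this lowers its fluorescence; % is scaled to controls: 0 for no effect and ±100 for the full control effect; nearly all actives have a fitted effect of over 65% in size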
[5] = biological target: Rap guanine nucleotide exchange factor 4 (Homo sapiens) (UniProt Q8WZA2); test: Confirmatory qHTS for antagonist of cAMP-regulated guanine nucleotide exchange factor 4 (EPAC2) (AID 1645885); conditions: EPAC2 Rap1B-BODIPY-GDP exchange fluorescence, biochemical; at 12.7 µM (top of the series) unless noted; also: % is scaled to controls: 0 for no effect and ±100 for the full control effect; nearly all actives have a fitted effect of over 25% in size
[6] = biological target: Rap guanine nucleotide exchange factor 3 (Homo sapiens) (UniProt O95398); test: Counterscreen qHTS for antagonist of cAMP-regulated guanine nucleotide exchange factor 3 (EPAC1) (AID 1645888); conditions: Rap1B-BODIPY-GDP nucleotide exchange, fluorescence; at 30.8 µM (top of the series) unless noted;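 also: fluorescence loss as bound BODIPY-GDP is released from Rap1B; % of control where 0% means no effect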
Procedure, shortened: (§1)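 Rap1B-BODIPY-GDP 250 nM + GDP 50 uM; cpds 7-pt, final 9.74 nM–152 uM (activator mode) or from 7.32 nM upwards (inhibitor mode); RT; FI 480/540 nm at 5 and 30 min, then ± cAMP, reread.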

[7] = biological target: Rap guanine nucleotide exchange factor 3 (Homo sapiens) (UniProt O95398); test: Counterscreen qHTS for agonist of cAMP-regulated guanine nucleotide exchange factor 3 (EPAC1) (AID 1645889); conditions: EPAC1 Rap1B-BODIPY-GDP exchange, fluorescence; at 30.8 µM (top of the series) unless noted; also: % of control where 0% means no effect; nearly all actives have a fitted effect of over 40% in size
Procedure, shortened: as §1

C[N+]1=C2C=CC=CC=C2SC12C([N+](=O)[O-])=CC([N+](=O)[O-])=C[C-]2[N+](=O)[O-] (configuration not stated)
inactive: activity, negative = inhibition [1] -24.9% | activity change, negative = inhibition [2] -27.3% | activation [3] -3.47% | activation [4] 1.06% [at 154 µM] | activity change, negative = inhibition [5] 7.02% [at 114 µM] | activity change, negative = inhibition [6] 6.67% [at 154 µM] | activation [7] 1.81% [at 154 µM]
